Data from ChEMBL document CHEMBL1136405, “Acyclic N-(azacycloalkyl)bisindolylmaleimides: isozyme selective inhibitors of PKCbeta” (Bioorg Med Chem Lett, 2003).

Target: Protein kinase C (PKC)
Assay: Inhibition of purified rat brain protein kinase C (RB-PKC)

IC50: 0.2 µM
SMILES: CCN1CCC(n2cc(C3=C(c4cn(C)c5ccccc45)C(=O)NC3=O)c3ccccc32)CC1
